Values of other authors as cited in publication PMC11505911, “Design and Synthesis of Small Molecule Probes of MDA-9/Syntenin” (Biomolecules, 2024).

The chains behind the UniProt entries cited, without tags or fusion partners.
UniProt O00560, whole entry: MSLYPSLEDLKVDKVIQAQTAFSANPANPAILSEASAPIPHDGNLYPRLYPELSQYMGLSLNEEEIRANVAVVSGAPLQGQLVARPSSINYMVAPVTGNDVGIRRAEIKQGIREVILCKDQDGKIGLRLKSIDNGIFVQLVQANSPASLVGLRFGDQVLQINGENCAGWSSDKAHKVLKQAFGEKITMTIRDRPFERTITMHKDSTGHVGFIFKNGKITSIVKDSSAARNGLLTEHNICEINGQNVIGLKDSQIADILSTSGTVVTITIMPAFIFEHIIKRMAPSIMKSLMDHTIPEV

Target: MDA-9/Syntenin (Homo sapiens, UniProt O00560)
Details: cited from earlier work

## CC(=O)c1ccc(F)c(-c2ccc(C[C@@H](C(=O)N[C@@H](C)C(=O)O)N3Cc4cc(Br)ccc4C3=O)cc2)c1
  potency (MDA-9/Syntenin inhibitor): 400 nM
read-out: MDA-9 KD, binding domain PDZ1
  Kd: 400 nM
